The source made the active and inactive calls. No cut-off for these calls is given here.
How the values were obtained:
Type in all cases: cell-based
[1] = target: Transient receptor potential cation channel subfamily A member 1 (Rattus norvegicus) (UniProt Q6RI86); test: Agonist activity at full length rat TRPA1 transfected in HEK293F cells assessed as increase in Ca2+ influx by FLIPR calcium assay relative to MO; conditions: filed as agonist
[2] = target: Transient receptor potential cation channel subfamily A member 1 (Homo sapiens, UniProt O75762); test: Antagonist activity at full length human TRPA1 transfected in HEK293F cells assessed as increase in Ca2+ influx by FLIPR calcium assay; conditions: filed as antagonist
[3] = target: Transient receptor potential cation channel subfamily A member 1 (Macaca mulatta) (UniProt A0A1D5QMT1); test: Antagonist activity at rhesus monkey TRPA1 transfected in HEK293F cells assessed as increase in Ca2+ influx by FLIPR calcium assay; conditions: filed as antagonist
[4] = target: Transient receptor potential cation channel subfamily A member 1 (Mus musculus) (UniProt Q8BLA8); test: Agonist activity at full length mouse TRPA1 transfected in HEK293F cells assessed as increase in Ca2+ influx by FLIPR calcium assay relative to control; conditions: filed as agonist
[5] = target: Transient receptor potential cation channel subfamily A member 1 (Rattus norvegicus) (UniProt Q6RI86); test: Agonist activity at full length rat TRPA1 transfected in HEK293F cells assessed as blockade of MO-induced TRPA1 channel activation by measuring Ca2+ influx in presence of 30 uM MO by FLIPR calcium assay; conditions: filed as agonist
[6] = target: Transient receptor potential cation channel subfamily A member 1 (Mus musculus) (UniProt Q8BLA8); test: Agonist activity at full length mouse TRPA1 transfected in HEK293F cells assessed as blockade of MO-induced TRPA1 channel activation by measuring Ca2+ influx in presence of 30 uM MO by FLIPR calcium assay; conditions: filed as agonist

The chains behind the UniProt entries cited, without tags or fusion partners.
UniProt Q6RI86, whole entry, looked up: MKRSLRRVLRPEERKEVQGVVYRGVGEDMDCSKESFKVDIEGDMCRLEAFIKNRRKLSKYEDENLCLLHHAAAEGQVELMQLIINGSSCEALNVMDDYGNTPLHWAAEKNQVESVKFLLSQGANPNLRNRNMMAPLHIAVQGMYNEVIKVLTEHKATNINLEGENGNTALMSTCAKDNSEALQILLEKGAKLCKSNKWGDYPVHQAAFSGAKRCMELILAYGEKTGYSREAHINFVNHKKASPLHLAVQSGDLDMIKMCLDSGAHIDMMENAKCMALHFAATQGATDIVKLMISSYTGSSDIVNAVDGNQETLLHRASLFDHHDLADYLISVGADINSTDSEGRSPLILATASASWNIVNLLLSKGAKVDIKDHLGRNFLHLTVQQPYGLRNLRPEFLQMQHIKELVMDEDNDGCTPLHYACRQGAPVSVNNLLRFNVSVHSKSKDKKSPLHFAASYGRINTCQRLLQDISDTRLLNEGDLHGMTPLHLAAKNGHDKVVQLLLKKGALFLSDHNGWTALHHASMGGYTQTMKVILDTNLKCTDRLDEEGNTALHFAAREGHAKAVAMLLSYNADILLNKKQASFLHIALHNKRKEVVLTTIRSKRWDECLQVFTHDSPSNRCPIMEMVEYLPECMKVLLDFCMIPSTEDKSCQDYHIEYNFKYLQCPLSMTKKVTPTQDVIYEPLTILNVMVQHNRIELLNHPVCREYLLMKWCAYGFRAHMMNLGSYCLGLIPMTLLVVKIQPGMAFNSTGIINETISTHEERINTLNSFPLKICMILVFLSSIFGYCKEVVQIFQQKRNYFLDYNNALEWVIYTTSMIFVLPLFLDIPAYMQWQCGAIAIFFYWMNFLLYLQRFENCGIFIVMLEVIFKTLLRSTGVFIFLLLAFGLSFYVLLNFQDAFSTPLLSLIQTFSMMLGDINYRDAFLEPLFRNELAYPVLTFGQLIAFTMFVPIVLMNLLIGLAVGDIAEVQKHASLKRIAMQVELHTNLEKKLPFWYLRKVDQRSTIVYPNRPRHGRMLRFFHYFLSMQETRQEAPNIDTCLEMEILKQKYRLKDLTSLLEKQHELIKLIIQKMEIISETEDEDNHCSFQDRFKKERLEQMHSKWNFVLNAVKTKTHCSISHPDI
UniProt O75762, whole entry, looked up: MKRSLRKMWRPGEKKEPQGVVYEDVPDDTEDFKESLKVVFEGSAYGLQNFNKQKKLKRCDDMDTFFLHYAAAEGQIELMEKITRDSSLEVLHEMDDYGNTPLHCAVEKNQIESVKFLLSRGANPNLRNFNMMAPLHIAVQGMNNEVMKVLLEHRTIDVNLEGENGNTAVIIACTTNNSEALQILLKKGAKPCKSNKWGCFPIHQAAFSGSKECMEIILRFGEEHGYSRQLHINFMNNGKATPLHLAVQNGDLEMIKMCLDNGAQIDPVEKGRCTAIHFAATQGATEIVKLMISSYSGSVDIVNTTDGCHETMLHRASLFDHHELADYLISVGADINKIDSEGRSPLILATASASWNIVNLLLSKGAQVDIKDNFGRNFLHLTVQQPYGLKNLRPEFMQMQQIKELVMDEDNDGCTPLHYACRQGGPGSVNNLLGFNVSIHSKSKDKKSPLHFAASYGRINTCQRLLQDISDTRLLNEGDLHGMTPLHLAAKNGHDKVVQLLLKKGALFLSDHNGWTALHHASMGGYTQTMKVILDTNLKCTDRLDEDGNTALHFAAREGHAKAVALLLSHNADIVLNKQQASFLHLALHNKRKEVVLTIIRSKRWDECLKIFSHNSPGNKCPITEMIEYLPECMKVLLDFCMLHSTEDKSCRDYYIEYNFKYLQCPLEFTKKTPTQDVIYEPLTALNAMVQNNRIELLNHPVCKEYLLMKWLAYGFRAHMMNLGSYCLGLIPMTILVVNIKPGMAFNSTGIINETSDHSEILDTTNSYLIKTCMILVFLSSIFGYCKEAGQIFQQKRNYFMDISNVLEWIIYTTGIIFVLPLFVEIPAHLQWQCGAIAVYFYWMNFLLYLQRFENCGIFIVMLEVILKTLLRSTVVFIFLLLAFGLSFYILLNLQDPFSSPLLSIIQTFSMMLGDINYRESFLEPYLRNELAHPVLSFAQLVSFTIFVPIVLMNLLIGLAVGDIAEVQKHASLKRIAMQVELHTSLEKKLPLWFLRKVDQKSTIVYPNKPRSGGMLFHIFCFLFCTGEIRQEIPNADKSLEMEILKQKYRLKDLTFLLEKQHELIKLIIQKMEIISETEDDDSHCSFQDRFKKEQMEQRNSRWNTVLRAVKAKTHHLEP
UniProt Q8BLA8, whole entry, looked up: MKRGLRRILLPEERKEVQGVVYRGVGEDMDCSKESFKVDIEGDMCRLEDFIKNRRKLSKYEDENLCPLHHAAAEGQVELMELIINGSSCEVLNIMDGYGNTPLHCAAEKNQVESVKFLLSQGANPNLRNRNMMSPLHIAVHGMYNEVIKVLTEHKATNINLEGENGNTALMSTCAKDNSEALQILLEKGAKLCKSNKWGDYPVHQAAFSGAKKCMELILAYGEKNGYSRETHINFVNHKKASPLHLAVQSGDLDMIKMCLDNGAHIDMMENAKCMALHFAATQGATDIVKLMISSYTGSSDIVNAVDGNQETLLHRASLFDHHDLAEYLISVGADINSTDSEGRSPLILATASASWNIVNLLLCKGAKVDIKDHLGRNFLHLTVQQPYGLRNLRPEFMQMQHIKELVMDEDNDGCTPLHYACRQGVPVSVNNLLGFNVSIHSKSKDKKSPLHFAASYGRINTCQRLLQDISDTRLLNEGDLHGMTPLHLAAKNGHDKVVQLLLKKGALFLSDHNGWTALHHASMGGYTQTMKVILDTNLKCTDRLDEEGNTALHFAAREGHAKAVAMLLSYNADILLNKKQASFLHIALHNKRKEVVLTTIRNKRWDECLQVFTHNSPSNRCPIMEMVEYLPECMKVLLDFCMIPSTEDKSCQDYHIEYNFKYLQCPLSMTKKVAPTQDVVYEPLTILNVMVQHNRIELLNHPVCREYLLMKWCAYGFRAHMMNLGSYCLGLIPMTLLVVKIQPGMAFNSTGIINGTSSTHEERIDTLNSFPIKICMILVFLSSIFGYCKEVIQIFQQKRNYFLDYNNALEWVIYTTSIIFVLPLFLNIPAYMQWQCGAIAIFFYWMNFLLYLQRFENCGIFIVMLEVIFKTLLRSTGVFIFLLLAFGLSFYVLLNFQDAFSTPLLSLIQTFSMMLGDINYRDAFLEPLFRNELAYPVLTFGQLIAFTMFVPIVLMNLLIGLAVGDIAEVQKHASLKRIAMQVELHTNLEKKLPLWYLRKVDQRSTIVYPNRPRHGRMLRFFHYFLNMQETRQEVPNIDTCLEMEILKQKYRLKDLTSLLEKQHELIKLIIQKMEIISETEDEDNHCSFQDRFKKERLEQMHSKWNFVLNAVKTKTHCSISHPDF

Cc1ccc(C(=O)NC(Sc2ccc([N+](=O)[O-])cc2)C(Cl)(Cl)Cl)cc1 (stereo unspecified)
Emax [1]: 77% | Activity [2]: Active | Activity [3]: Active | Emax [4]: 77% | Activity [5]: Active | Activity [6]: Active
